What was measured:
[1] = Cleavage of soluble peptides in human plasma alone, fluorescence plate reader; type: in vitro ADME; conditions: 90 μM peptide, 10 μl plasma in PBS pH 7.2, without TNKase®
Method: The peptides in Table 3 were re-synthesized in soluble form with nitrotyrosine (Y(NO2) at the N-terminus and Abz at the ε-amino group of the lysine residue (k(Abz)) at the C-terminus. They were then incubated with human plasma alone or plasma plus TNKase® in a 96-well plate and the cleavage reaction was monitored over a period of time with a fluorescent plate reader. Each well contained 90 μM of peptides, 10 μl of plasma in PBS, ph 7.2, with or without 1 μg of TNKase®, in a final volume of 100 μl. Cleavage was measured as fluorescence intensity at different time intervals in the fluorescence plate reader at 360/440 nm excitation and emission range.

[2] = Stability of peptides in supernatants from tumor cell line cultures; conditions: supernatants of several tumor cell lines in log phase

## PFGRSA
[1]
  stability / cleavage in human plasma: highly susceptible to cleavage
[2]
  stability / cleavage in tumor cell culture supernatants: highly susceptible to cleavage
